In patent US20210340177A1, “BIOACTIVE PEPTIDES HAVING HIGH BINDING AFFINITY TO HUMAN MUSCULAR NICOTINIC ACETYLCHOLINE RECEPTOR” (priority 2020, published 2021):
“Also recorded” adds a separate entry of the source.

Tested on: muscle cells
Type: cell-based
Protocol: The efficacy of peptides V0083091A (KKYK; SEQ ID NO: 1) and V0083092A (KWKK; […]. Muscle cells were incubated or treated without (control) or with compounds, for example, peptides V0083091A and V0083092A, and contraction of the muscle cells was evaluated after incubation for 5 hours, after incubation for 24 hours, or after incubation for 24 hours followed by a washing step.

Structure (SMILES): CN1C(=O)CN=C(c2ccccc2)c2cc(Cl)ccc21 [diazepam]
- Inhibition of contraction of muscle cells, compared with spilanthol: same profile as spilanthol; also recorded: slightly larger
